{"sequences": {"note": "Chains of the proteins cited; added tags and fusions are not shown. Residues count along the entry.", "UniProt P05106, 27-788": "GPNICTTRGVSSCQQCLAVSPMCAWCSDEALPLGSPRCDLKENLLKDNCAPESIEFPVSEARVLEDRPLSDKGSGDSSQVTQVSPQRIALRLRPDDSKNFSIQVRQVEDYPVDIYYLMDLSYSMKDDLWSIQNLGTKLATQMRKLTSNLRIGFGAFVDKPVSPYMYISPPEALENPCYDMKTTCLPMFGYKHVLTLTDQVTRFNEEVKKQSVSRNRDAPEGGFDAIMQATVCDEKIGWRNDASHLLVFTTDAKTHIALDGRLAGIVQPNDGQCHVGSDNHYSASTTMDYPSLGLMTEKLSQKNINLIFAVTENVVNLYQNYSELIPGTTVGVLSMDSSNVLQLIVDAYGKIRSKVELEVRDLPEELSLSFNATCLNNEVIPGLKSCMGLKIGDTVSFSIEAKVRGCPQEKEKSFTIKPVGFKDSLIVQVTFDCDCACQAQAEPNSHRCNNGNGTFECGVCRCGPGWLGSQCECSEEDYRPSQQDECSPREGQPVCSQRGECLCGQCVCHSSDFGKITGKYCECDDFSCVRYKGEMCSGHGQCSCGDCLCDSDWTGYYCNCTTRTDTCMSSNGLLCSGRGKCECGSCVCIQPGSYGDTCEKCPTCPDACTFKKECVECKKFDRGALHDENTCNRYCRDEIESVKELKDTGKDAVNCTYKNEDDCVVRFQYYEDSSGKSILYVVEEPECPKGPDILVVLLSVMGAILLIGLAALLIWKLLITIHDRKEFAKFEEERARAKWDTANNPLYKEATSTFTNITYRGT", "UniProt P06756, 31-1048": "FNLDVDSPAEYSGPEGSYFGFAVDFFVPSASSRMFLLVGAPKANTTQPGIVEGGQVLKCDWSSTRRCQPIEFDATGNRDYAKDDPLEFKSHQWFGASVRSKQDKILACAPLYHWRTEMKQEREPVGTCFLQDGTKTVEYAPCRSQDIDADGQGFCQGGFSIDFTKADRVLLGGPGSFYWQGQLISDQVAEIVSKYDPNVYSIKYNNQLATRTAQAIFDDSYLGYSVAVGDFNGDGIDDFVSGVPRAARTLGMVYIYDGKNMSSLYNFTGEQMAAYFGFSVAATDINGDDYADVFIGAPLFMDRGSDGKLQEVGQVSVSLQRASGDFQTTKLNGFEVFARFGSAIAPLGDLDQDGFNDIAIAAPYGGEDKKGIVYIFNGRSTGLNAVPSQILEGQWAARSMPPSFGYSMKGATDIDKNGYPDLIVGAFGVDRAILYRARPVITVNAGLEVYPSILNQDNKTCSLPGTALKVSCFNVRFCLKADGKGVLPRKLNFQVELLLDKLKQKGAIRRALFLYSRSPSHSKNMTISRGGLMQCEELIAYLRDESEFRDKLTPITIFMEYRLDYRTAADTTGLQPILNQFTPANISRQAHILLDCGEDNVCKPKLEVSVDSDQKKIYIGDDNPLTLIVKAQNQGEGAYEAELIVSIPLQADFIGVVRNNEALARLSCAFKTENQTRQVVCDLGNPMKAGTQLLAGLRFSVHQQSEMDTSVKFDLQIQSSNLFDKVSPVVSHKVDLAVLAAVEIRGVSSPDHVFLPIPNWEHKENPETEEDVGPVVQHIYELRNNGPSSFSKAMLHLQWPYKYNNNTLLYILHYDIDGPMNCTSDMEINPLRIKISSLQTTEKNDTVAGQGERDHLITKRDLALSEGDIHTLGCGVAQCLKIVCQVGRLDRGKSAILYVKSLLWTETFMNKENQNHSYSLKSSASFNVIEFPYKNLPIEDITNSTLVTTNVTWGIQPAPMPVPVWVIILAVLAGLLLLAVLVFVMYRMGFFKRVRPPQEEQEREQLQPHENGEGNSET"}, "source": "patent US12428648B2", "about": "“Compositions comprising peptides that block transmission of orthotospoviruses” (priority 2019, dated 2025)", "origin": "cited, not measured here", "target": "αvβ3 (Homo sapiens, UniProt P05106+P06756)", "details": "Hersel et al., 2003; cited from earlier work"}
{"substance": "cyclo (RGDf(NMe)V)", "values": [{"measurement": "integrin selectivity, in words", "result": "selective for αvβ3"}]}
